# Parent scFvs against a spike HR2 peptide, AlphaSeq assay B

Source: Li et al. 2023 (doi:10.1038/s41467-023-39022-2), MIT Lincoln Laboratory and A-Alpha Bio; data file from the FLAb repository.

Target peptide (SARS-CoV-2 spike, HR2 region): PDVDLGDISGINAS

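Ab-14 (VH, linker, VL) is the parent of the designed variants that this assay measured; its own sequence was in the pool as ten entries. In AlphaSeq, yeast of one mating type display the scFv and yeast of the other type display the target. Binding brings cells together so that they mate, and sequencing counts the barcode pairs among the diploids. Read counts were normalised to the haploid input and turned into Kd by a linear fit to BCL2-family pairs of known affinity, for each replicate. Mating was done six times.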

Scale: log10 of Kd in nM, estimated from mating counts; low values are strong binders. "ND" means that the antibody was in the library but no mating with the target was seen in that replicate; the authors take this as a sign of poor binding, and no number exists. Entries in the file, in the order shown: 14H_Ctrl_10, 14H_Ctrl_7678, 14H_Ctrl_7698, 14H_Ctrl_7718, 14H_Ctrl_7738, 14L_Ctrl_04, 14L_Ctrl_8181, 14L_Ctrl_8201, 14L_Ctrl_8221, 14L_Ctrl_8241. Some sequences occur more than once in the pool; their replicates are listed entry by entry, parted by semicolons.

| # | antibody | scFv | replicates, log10 nM | empty controls |
|---|---|---|---|---|
| 1 | Ab-14 | EVQLVETGGGLVQPGGSLRLSCAASGFTLNSYGISWVRQAPGKGPEWVSVIYSDGRRTFYGDSVKGRFTISRDTSTNTVYLQMNSLRVEDTAVYYCAKGRAAGTFDSWGQGTLVTVSSGGGGSGGGGSGGGGSDVVMTQSPESLAVSLGERATISCKSSQSVLYESRNKNSVAWYQQKAGQPPKLLIYWASTRESGVPDRFSGSGSGTDFTLTISSLQAEDAAVYYCQQYHRLPLSFGGGTKVEIK | ND / ND / ND / ND / ND / 1.88; 1.96 / 1.87 / 2.86 / 1.59 / 2.04 / 1.45; ND / ND / ND / ND / ND / ND; 0.43 / 0.57 / ND / ND / 0.05 / 0.34; ND / ND / ND / ND / ND / ND; ND / ND / ND / 0.75 / ND / ND; 1.51 / 2.16 / 0.98 / 2.30 / 1.91 / 1.55; ND / ND / ND / ND / ND / ND; 2.68 / ND / ND / 2.15 / 1.64 / 3.02; ND / ND / ND / ND / ND / 1.64 | 0 of 180 |

Three control strains display no target. For all scFvs of this assay, 3% of the pairings with them gave a signal, with a median of 2.55 and one signal in twenty below 1.37, so weak values seen in few replicates may be background. For each scFv, signals with the empty controls are counted beside the result. The range of this assay differs from that of the first round, and the authors advise against merging the two. In the paper, a design with two or fewer of six values counts as a poor binder.